This note sets out measurements from paper PMC10745346, “A Robust and Efficient FRET-Based Assay for Cannabinoid Receptor Ligands Discovery” (Molecules, 2023).

Chains of the proteins cited; added tags and fusions are not shown.
UniProt P34972, whole entry: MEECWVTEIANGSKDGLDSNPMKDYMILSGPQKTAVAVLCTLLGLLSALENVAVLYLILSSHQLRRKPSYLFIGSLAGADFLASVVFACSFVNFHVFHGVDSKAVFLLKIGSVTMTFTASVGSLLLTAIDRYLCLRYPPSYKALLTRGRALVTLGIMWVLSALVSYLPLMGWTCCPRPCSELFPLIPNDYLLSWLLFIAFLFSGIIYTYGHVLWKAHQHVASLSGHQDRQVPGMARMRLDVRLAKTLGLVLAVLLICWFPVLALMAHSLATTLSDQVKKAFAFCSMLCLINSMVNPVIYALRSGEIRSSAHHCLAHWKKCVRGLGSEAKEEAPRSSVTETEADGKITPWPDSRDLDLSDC

The structures appear in SMILES notation.

The experiment deals with T1, SNAP-CB2R (Homo sapiens, UniProt P34972).
T1 construct: host or cells: HEK-293 cells, transient transfection (lipofectamine 2000), living adherent cells
Put plainly: Tag-lite competition binding assay with CELT-335, living cells expressing SNAP-CB2R.

As usually defined, the Ki is a dissociation constant, usually derived from enzyme kinetics or from competition with a known ligand. On to `C=C(C)[C@@H]1CCC(C)=C[C@H]1c1c(O)cc(CCCCC)cc1O` [CBD, Cannabidiol], for which the affinity, expressed as Ki, was 1.05 µM.
